Source: PubChem BioAssay AID1532 (PCMD, 2009)
The list shows a part of the results, in another mix than the full data. Some structures show a salt or complex split into parts, the way the source records it. The source made the active and inactive calls. No stated cut-off is given here; in the data, active means inhibition above about 30% (passing the limit was not always enough); inconclusive means no clear call, values can overlap the other calls.

Each compound was assayed on RmlC (dTDP-4-dehydrorhamnose 3,5-epimerase) and RmlD (dTDP-4-dehydrorhamnose reductase), coupled enzyme assay (assay: RmlC and RmlD coupled enzyme inhibitors, primary screen, biochemical, 384-well, compound mixtures, retest (AID 1532)). Conditions: 384-well mixture HTS, at 5.5 µM, hits give high values.

Compound	inhibition
CP(=O)(NC(=O)Nc1ccccc1)Oc1ccccc1 (stereo not drawn)	inactive: -4.81%
CCOP(C)(=S)SCC(=O)NC(C)C(=O)O (stereo not drawn)	inactive: 7.17%
CP(=O)(Nc1ccccn1)Oc1ccc(Cl)cc1 (stereo not drawn)	inactive: -10%
CP(=S)(Nn1cnnc1)Oc1ccccc1 (stereo not drawn)	inactive: -9.56%
COc1ccccc1OP(C)(=O)Nc1ccc(C)cc1 (stereo not drawn)	inactive: -10.6%
Cc1cc(C)cc(OP(C)(=O)Nc2ccc(C)cc2C)c1 (stereo not drawn)	inactive: 8.33%
Cc1ccc(C)c(NP(C)(=O)Oc2ccccc2)c1 (stereo not drawn)	inactive: -9.78%
Cc1cc(C)cc(OP(C)(=O)Nc2ccccn2)c1 (stereo not drawn)	inactive: -12.7%
COc1ccccc1OP(C)(=O)Nc1c(C)cccc1C (stereo not drawn)	inactive: -19.2%
Cc1nc2ccc3ccccc3c2s1.O=[N+]([O-])c1cc([N+](=O)[O-])c(O)c([N+](=O)[O-])c1	inactive: 11%
CCOP(C)(=S)SCC(=O)NC(C)(CC)C(=O)O (stereo not drawn)	inactive: -7.72%
CP(=O)(Nc1ccc2c(c1)OCCO2)Oc1ccccc1 (stereo not drawn)	inactive: 7.06%
Cc1ccccc1NP(C)(=O)Nc1ccccc1C	inactive: 3.38%
COc1ccc(OP(C)(=O)Nc2cccc(Br)c2)cc1 (stereo not drawn)	inactive: -7.7%
CN(C)CCOC(=O)C(O)(c1ccccc1)C1CCCCC1 (stereo not drawn)	inactive: 1.99%
CCN(CC)CCCOC(=O)C(O)(c1ccccc1)C1CCCCC1 (stereo not drawn)	inactive: 4.39%
CP(=O)(Nc1ccccc1)Oc1ccc(F)cc1 (stereo not drawn)	inactive: 6.69%

Compound	inhibition
CP(=O)(Nc1ccccc1F)Oc1ccccc1 (stereo not drawn)	inactive: 10.1%
COc1ccc2c(c1O)-c1c(O)c(OC)cc3c1[C@H](C2)[N+](C)(C)CC3.O=[N+]([O-])c1cc([N+](=O)[O-])c([O-])c([N+](=O)[O-])c1[O-]	inactive: 15.8%
COc1ccc(OP(C)(=O)Nc2ccccn2)cc1 (stereo not drawn)	inactive: -14.8%
CN(C)CCOC(=O)C(O)(c1ccccc1)C1CCCC1 (stereo not drawn)	inactive: 30.8%
Cc1c(NP(C)(=O)Oc2ccc(C(C)C)cc2)c(=O)n(-c2ccccc2)n1C (stereo not drawn)	inactive: -9.63%
COc1ccccc1OP(C)(=O)Nc1ccc(C)cc1C (stereo not drawn)	inactive: -8.3%
CP(=O)(Nc1ccccn1)Oc1ccccc1 (stereo not drawn)	inactive: -50.5%
CCc1ccc(OP(C)(=O)O)cc1	inactive: 49.1%
COc1ccccc1OP(C)(=O)Nc1ccc(C)c(C)c1 (stereo not drawn)	inactive: 7.53%
Cc1nc2ccc3ccccc3c2o1.O=[N+]([O-])c1cc([N+](=O)[O-])c(O)c([N+](=O)[O-])c1	inactive: 16.5%
CP(=O)(OC12CC3CC(CC(C3)C1)C2)OC12CC3CC(CC(C3)C1)C2	inactive: -9.74%
CCN(CC)CC(O)COC(=O)C(O)(c1ccccc1)C1CCCCC1 (stereo not drawn)	inactive: 4.19%
COc1ccccc1OP(C)(=O)Nc1c(C)n(C)n(-c2ccccc2)c1=O (stereo not drawn)	inactive: 3.11%
CP(=O)(Oc1ccccc1)N1CCOC1=O (stereo not drawn)	inactive: -19%
CC(C)(C)c1ccc(OP(C)(=O)O)cc1	inactive: 5.88%
CP(=O)(Nc1ccc(Cl)cc1)Oc1ccc(F)cc1 (stereo not drawn)	inactive: 2.32%
